# Some compounds may have been tested in ways that are not shown here.
# Sequences of proteins named here, by UniProt entry; tags and fusion partners are left off.
# UniProt P34972, whole entry: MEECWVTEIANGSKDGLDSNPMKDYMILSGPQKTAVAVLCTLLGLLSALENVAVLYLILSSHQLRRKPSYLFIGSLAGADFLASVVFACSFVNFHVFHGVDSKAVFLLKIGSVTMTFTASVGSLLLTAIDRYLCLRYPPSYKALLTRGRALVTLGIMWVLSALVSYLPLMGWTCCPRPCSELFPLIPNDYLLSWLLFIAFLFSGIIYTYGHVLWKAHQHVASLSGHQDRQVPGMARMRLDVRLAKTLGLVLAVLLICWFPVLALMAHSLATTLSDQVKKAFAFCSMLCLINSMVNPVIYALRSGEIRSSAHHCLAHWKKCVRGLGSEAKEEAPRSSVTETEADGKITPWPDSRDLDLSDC
# Tests used:
# hCB2 [1] = molecular target: T1, hCB2 (Homo sapiens, UniProt P34972); assay: hCB2 receptor binding (3H-CP55,940 displacement, membranes); conditions: read-out: hCB2 IC50, Table 2, human CB2 membranes
# hCB2 [2] = molecular target: T1, hCB2; assay: hCB2 GTPγS binding; format: biochemical
structure (smiles),measurement,setting,value
CCOc1ccc(Cc2nc3cc(N(C)C(=O)CC(C)C)ccc3n2C[C@H]2CCCN2)cc1,IC50,hCB2 [1],27 nM
same,Emax (%),"hCB2 [2]; Table 2, maximal stimulated binding defined with 1 μM Win 55,212-2",33%
same,EC50,"hCB2 [2]; read-out: hCB2 EC50, Table 2, human CB2 membranes",9 nM

# Source: patent US7030139B2, “Compounds” (AstraZeneca AB, priority 2001, dated 2006)
